The values that follow come from US7704987B1, “β-amyloid peptide inhibitors” (Prana Biotechnology Ltd, priority 1999, dated 2010).

The subject of this assay is Aβ deposited in the brains of Alzheimer's disease patients. The assay can be described thus: Brain tissue assay: solubilisation of Aβ deposits from post-mortem AD brain (Western blot). Also noted: species or system human. As to conditions: post-mortem brain homogenate in PBS, 24 h at room temperature, Western blot (FIG. 7); compound concentrations as in Table 1. (In general: Immunoblotting shows a protein as a band on a membrane.)

Consider “Iron(III) phthalocyanine chloride [KJB005]”, for which the “ability to solubilise Aβ deposited in the brains of Alzheimer's disease patients” value is recorded as “good activity”.
